# AlphaSeq binding of Ab-14 heavy chain variants to a spike HR2 peptide

From the AlphaSeq antibody data of Engelhart et al. 2022 (doi:10.1038/s41597-022-01779-4), copy in the FLAb collection.

Target: peptide PDVDLGDISGINAS, taken from heptad repeat 2 (HR2) of SARS-CoV-2 spike.

Parent scFv Ab-14: VH joined to VL by three GGGGS repeats. Changes lie in the heavy chain CDRs alone.
VH: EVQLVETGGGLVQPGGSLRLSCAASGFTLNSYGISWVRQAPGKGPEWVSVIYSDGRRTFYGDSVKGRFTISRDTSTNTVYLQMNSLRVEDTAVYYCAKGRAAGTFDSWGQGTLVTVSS
VL: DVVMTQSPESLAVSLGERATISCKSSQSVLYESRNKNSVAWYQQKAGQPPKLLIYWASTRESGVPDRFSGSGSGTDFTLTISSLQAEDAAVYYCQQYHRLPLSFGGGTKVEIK

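In library AAYL49, one, two or three CDR residues were substituted; doubles and triples were drawn at random. In AlphaSeq, yeast of one mating type display the scFv and yeast of the other type display the target. The frequency of each diploid, read from paired DNA barcodes, reflects how well the two displayed proteins bind. Each replicate has its own calibration line, from reference interactions of the BCL2 family. Mating was done three times.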

Positions count from residue 1 of the parent VH; G33Y puts Y in place of G.
All variants listed here change D106 of the VH, counted from its first residue.
The Kd shown is the geometric mean over detected replicates; a lower Kd is a better binder.
"nd" marks a missing value. The strain was present, yet no cells mated with the target were sequenced in any replicate, which points to weak or no binding.
As a blank, each scFv also met three strains without target: over library AAYL49, 15% of these pairings were detected, typically at 11 µM and seldom below 680 nM.

- G33Y+D106A: 1.1 µM (2 of 3 replicates)
- F59G+D62V+D106F: nd (0 of 3 replicates)
- S35G+T58N+D106K: nd (0 of 3 replicates)
- G33N+Y52S+D106G: 640 nM (1 of 3 replicates)
- K65M+D106R: 53 nM (3 of 3 replicates)
- F27I+T58V+D106F: 610 nM (3 of 3 replicates)
- L29R+S53P+D106K: 170 µM (1 of 3 replicates)
- I34N+F105S+D106M: nd (0 of 3 replicates)
- D62A+G103N+D106S: nd (0 of 3 replicates)
- S53E+G103W+D106V: 210 µM (1 of 3 replicates)
- S31N+A102D+D106V: 49 µM (2 of 3 replicates)
- R100G+G103W+D106M: nd (0 of 3 replicates)
- V50R+A102N+D106L: 180 µM (3 of 3 replicates)
- Y32V+G61C+D106G: nd (0 of 3 replicates)
- D54H+G61A+D106W: nd (0 of 3 replicates)
- Y52H+G103K+D106P: 1.3 µM (1 of 3 replicates)
- T58S+S63Y+D106S: nd (0 of 3 replicates)
- S35A+R100L+D106Q: 16 µM (1 of 3 replicates)
- I34Q+D62P+D106M: nd (0 of 3 replicates)
- T28V+F105W+D106F: nd (0 of 3 replicates)
- Y52Q+G99H+D106W: 3.2 µM (1 of 3 replicates)
- I51K+F59T+D106S: nd (0 of 3 replicates)
- D54W+F105R+D106E: nd (0 of 3 replicates)
- I51V+G99R+D106V: nd (0 of 3 replicates)
- R57K+D106Y: 69 nM (3 of 3 replicates)
- F59C+F105H+D106Y: 9.0 µM (1 of 3 replicates)
- D54I+G55A+D106I: nd (0 of 3 replicates)
- T104Q+D106P: 2.6 µM (1 of 3 replicates)
- G55M+A102Y+D106S: nd (0 of 3 replicates)
- R57T+F105P+D106A: 140 nM (3 of 3 replicates)
- I51N+F59M+D106H: nd (0 of 3 replicates)
- L29H+F59G+D106W: 13 µM (1 of 3 replicates)
- Y52N+F105L+D106R: nd (0 of 3 replicates)
- R56N+T104A+D106W: nd (0 of 3 replicates)
- D106S: 77 nM (3 of 3 replicates)
- T28L+D62Y+D106M: 17 µM (3 of 3 replicates)
- G55Y+G99W+D106W: 66 µM (1 of 3 replicates)
- N30L+S35A+D106E: 100 µM (2 of 3 replicates)
- D62K+T104R+D106Y: nd (0 of 3 replicates)
- L29H+D106L+S107G: nd (0 of 3 replicates)
- R57Y+G61S+D106P: 520 nM (3 of 3 replicates)
- T58P+G103S+D106L: 10 µM (1 of 3 replicates)
- K65V+A101Y+D106R: 32 µM (1 of 3 replicates)
- L29V+K65M+D106T: 2.1 µM (3 of 3 replicates)
- G33K+G99M+D106T: nd (0 of 3 replicates)